According to patent US10335367B2, “Use of selected anticholinergic zwitterions” (Bodor Laboratories, Inc., priority 2015, dated 2019):
Where “and” joins values, the source holds several entries; their conditions need not be identical. Equal entries are not always repeated.

System: human eyes
Experiment: Mydriatic study of (2R)SGA & Tropicamide in human eyes (topical, pupil diameter)
Type: in vivo
Conditions: for recovery time (pupil within less than 1 mm of the control): 100 μL
[1] = 1%, 0.1 ml, Subject 1 Right eye, 120 hr
[2] = 1%, 0.1 ml, Subject 1 Right eye, 144 hr
[3] = 1%, 0.1 ml, Subject 1 Right eye, 168 hr
[4] = 1%, 0.1 ml, Subject 2 Left Eye, 0 hr
[5] = 1%, 0.1 ml, Subject 2 Left Eye, 0.25 hr
[6] = 1%, 0.1 ml, Subject 2 Left Eye, 0.5 hr
[7] = 1%, 0.1 ml, Subject 2 Left Eye, 0.75 hr
[8] = 1%, 0.1 ml, Subject 2 Left Eye, 1 hr
[9] = 1%, 0.1 ml, Subject 2 Left Eye, 1.5 hr
[10] = 1%, 0.1 ml, Subject 2 Left Eye, 2 hr
[11] = 1%, 0.1 ml, Subject 2 Left Eye, 3 hr
[12] = 1%, 0.1 ml, Subject 2 Left Eye, 4 hr
[13] = 1%, 0.1 ml, Subject 2 Left Eye, 5 hr
[14] = 1%, 0.1 ml, Subject 2 Left Eye, 6 hr
[15] = 1%, 0.1 ml, Subject 2 Left Eye, 7 hr
[16] = 1%, 0.1 ml, Subject 2 Left Eye, 8 hr
[17] = 1%, 0.1 ml, Subject 2 Left Eye, 12 hr
[18] = 1%, 0.1 ml, Subject 2 Left Eye, 24 hr
[19] = 1%, 0.1 ml, Subject 2 Left Eye, 36 hr
[20] = 1%, 0.1 ml, Subject 2 Left Eye, 48 hr
[21] = 1%, 0.1 ml, Subject 2 Left Eye, 72 hr
[22] = 1%, 0.1 ml, Subject 2 Left Eye, 96 hr
[23] = 1%, 0.1 ml, Subject 2 Left Eye, 120 hr
[24] = 1%, 0.1 ml, Subject 2 Left Eye, 144 hr
[25] = 1%, 0.1 ml, Subject 2 Left Eye, 168 hr
[26] = 1%, 0.1 ml, Subject 2 Right eye, 0 hr
[27] = 1%, 0.1 ml, Subject 2 Right eye, 0.25 hr
[28] = 1%, 0.1 ml, Subject 2 Right eye, 0.5 hr
[29] = 1%, 0.1 ml, Subject 2 Right eye, 0.75 hr
[30] = 1%, 0.1 ml, Subject 2 Right eye, 1 hr
[31] = 1%, 0.1 ml, Subject 2 Right eye, 1.5 hr
[32] = 1%, 0.1 ml, Subject 2 Right eye, 2 hr
[33] = 1%, 0.1 ml, Subject 2 Right eye, 3 hr
[34] = 1%, 0.1 ml, Subject 2 Right eye, 4 hr
[35] = 1%, 0.1 ml, Subject 2 Right eye, 5 hr
[36] = 1%, 0.1 ml, Subject 2 Right eye, 6 hr
[37] = 1%, 0.1 ml, Subject 2 Right eye, 7 hr
[38] = 1%, 0.1 ml, Subject 2 Right eye, 8 hr
[39] = 1%, 0.1 ml, Subject 2 Right eye, 12 hr
[40] = 1%, 0.1 ml, Subject 2 Right eye, 24 hr
[41] = 1%, 0.1 ml, Subject 2 Right eye, 36 hr
[42] = 1%, 0.1 ml, Subject 2 Right eye, 48 hr
[43] = 1%, 0.1 ml, Subject 2 Right eye, 72 hr
[44] = 1%, 0.1 ml, Subject 2 Right eye, 96 hr
[45] = 1%, 0.1 ml, Subject 2 Right eye, 120 hr
[46] = 1%, 0.1 ml, Subject 2 Right eye, 144 hr
[47] = 1%, 0.1 ml, Subject 2 Right eye, 168 hr

SMILES: C[N+]1(CC(=O)[O-])CCC(OC(=O)[C@](O)(c2ccccc2)C2CCCC2)C1 (stereo partly drawn)
- Pupil Size -Control (1%, 0.1 ml, Subject 1 Right eye, 96 hr): 2
- % dilation (% Change in pupil size) [1]: 50%
- Pupil Size [1]: 4.5 mm
- Pupil Size -Control [1]: 1.5
- % dilation (% Change in pupil size) [2]: 33% and 33.3%
- Pupil Size [2]: 4 mm
- Pupil Size -Control [2]: 1
- % dilation (% Change in pupil size) [3]: 17% and 16.7%
- Pupil Size [3]: 3.5 mm
- Pupil Size -Control [3]: 0.5
- AUC0-168 of % change in pupil size (1%, 0.1 ml, Subject 2 Left Eye): 4743.8
- % dilation (% Change in pupil size) [4]: 0%
- Pupil Size [4]: 3 mm
- Pupil Size -Control [4]: 0
- % dilation (% Change in pupil size) [5]: 33% and 33.3%
- Pupil Size [5]: 4 mm
- Pupil Size -Control [5]: 1
- % dilation (% Change in pupil size) [6]: 117% and 116.7%
- Pupil Size [6]: 6.5 mm
- Pupil Size -Control [6]: 3.5
- % dilation (% Change in pupil size) [7]: 117% and 116.7%
- Pupil Size [7]: 6.5 mm
- Pupil Size -Control [7]: 3.5
- % dilation (% Change in pupil size) [8]: 117% and 116.7%
- Pupil Size [8]: 6.5 mm
- Pupil Size -Control [8]: 3.5
- % dilation (% Change in pupil size) [9]: 117% and 116.7%
- Pupil Size [9]: 6.5 mm
- Pupil Size -Control [9]: 3.5
- % dilation (% Change in pupil size) [10]: 117% and 116.7%
- Pupil Size [10]: 6.5 mm
- Pupil Size -Control [10]: 3.5
- % dilation (% Change in pupil size) [11]: 133% and 133.3%
- Pupil Size [11]: 7 mm
- Pupil Size -Control [11]: 4
- % dilation (% Change in pupil size) [12]: 133% and 133.3%
- Pupil Size [12]: 7 mm
- Pupil Size -Control [12]: 4
- % dilation (% Change in pupil size) [13]: 125%
- Pupil Size [13]: 6.75 mm
- Pupil Size -Control [13]: 3.75
- % dilation (% Change in pupil size) [14]: 125%
- Pupil Size [14]: 6.75 mm
- Pupil Size -Control [14]: 3.75
- % dilation (% Change in pupil size) [15]: 125%
- Pupil Size [15]: 6.75 mm
- Pupil Size -Control [15]: 3.75
- % dilation (% Change in pupil size) [16]: 125%
- Pupil Size [16]: 6.75 mm
- Pupil Size -Control [16]: 3.75
- % dilation (% Change in pupil size) [17]: 117% and 116.7%
- Pupil Size [17]: 6.5 mm
- Pupil Size -Control [17]: 3.5
- % dilation (% Change in pupil size) [18]: 83% and 83.3%
- Pupil Size [18]: 5.5 mm
- Pupil Size -Control [18]: 2.5
- % dilation (% Change in pupil size) [19]: 50%
- Pupil Size [19]: 4.5 mm
- Pupil Size -Control [19]: 1.5
- % dilation (% Change in pupil size) [20]: 33% and 33.3%
- Pupil Size [20]: 4 mm
- Pupil Size -Control [20]: 1
- % dilation (% Change in pupil size) [21]: 17% and 16.7%
- Pupil Size [21]: 3.5 mm
- Pupil Size -Control [21]: 0.5
- % dilation (% Change in pupil size) [22]: 0%
- Pupil Size [22]: 3 mm
- Pupil Size -Control [22]: 0
- % dilation (% Change in pupil size) [23]: 0%
- Pupil Size [23]: 3 mm
- Pupil Size -Control [23]: 0
- % dilation (% Change in pupil size) [24]: 0%
- Pupil Size [24]: 3 mm
- Pupil Size -Control [24]: 0
- % dilation (% Change in pupil size) [25]: 0%
- Pupil Size [25]: 3 mm
- Pupil Size -Control [25]: 0
- AUC0-168 of % change in pupil size (1%, 0.1 ml, Subject 2 Right eye): 3137.5
- % dilation (% Change in pupil size) [26]: 0%
- Pupil Size [26]: 3 mm
- Pupil Size -Control [26]: 0
- % dilation (% Change in pupil size) [27]: 33% and 33.3%
- Pupil Size [27]: 4 mm
- Pupil Size -Control [27]: 1
- % dilation (% Change in pupil size) [28]: 100%
- Pupil Size [28]: 6 mm
- Pupil Size -Control [28]: 3
- % dilation (% Change in pupil size) [29]: 100%
- Pupil Size [29]: 6 mm
- Pupil Size -Control [29]: 3
- % dilation (% Change in pupil size) [30]: 100%
- Pupil Size [30]: 6 mm
- Pupil Size -Control [30]: 3
- % dilation (% Change in pupil size) [31]: 100%
- Pupil Size [31]: 6 mm
- Pupil Size -Control [31]: 3
- % dilation (% Change in pupil size) [32]: 100%
- Pupil Size [32]: 6 mm
- Pupil Size -Control [32]: 3
- % dilation (% Change in pupil size) [33]: 100%
- Pupil Size [33]: 6 mm
- Pupil Size -Control [33]: 3
- % dilation (% Change in pupil size) [34]: 100%
- Pupil Size [34]: 6 mm
- Pupil Size -Control [34]: 3
- % dilation (% Change in pupil size) [35]: 100%
- Pupil Size [35]: 6 mm
- Pupil Size -Control [35]: 3
- % dilation (% Change in pupil size) [36]: 100%
- Pupil Size [36]: 6 mm
- Pupil Size -Control [36]: 3
- % dilation (% Change in pupil size) [37]: 100%
- Pupil Size [37]: 6 mm
- Pupil Size -Control [37]: 3
- % dilation (% Change in pupil size) [38]: 100%
- Pupil Size [38]: 6 mm
- Pupil Size -Control [38]: 3
- % dilation (% Change in pupil size) [39]: 83% and 83.3%
- Pupil Size [39]: 5.5 mm
- Pupil Size -Control [39]: 2.5
- % dilation (% Change in pupil size) [40]: 50%
- Pupil Size [40]: 4.5 mm
- Pupil Size -Control [40]: 1.5
- % dilation (% Change in pupil size) [41]: 17% and 16.7%
- Pupil Size [41]: 3.5 mm
- Pupil Size -Control [41]: 0.5
- % dilation (% Change in pupil size) [42]: 17% and 16.7%
- Pupil Size [42]: 3.5 mm
- Pupil Size -Control [42]: 0.5
- % dilation (% Change in pupil size) [43]: 17% and 16.7%
- Pupil Size [43]: 3.5 mm
- Pupil Size -Control [43]: 0.5
- % dilation (% Change in pupil size) [44]: 0%
- Pupil Size [44]: 3 mm
- Pupil Size -Control [44]: 0
- % dilation (% Change in pupil size) [45]: 0%
- Pupil Size [45]: 3 mm
- Pupil Size -Control [45]: 0
- % dilation (% Change in pupil size) [46]: 0%
- Pupil Size [46]: 3 mm
- Pupil Size -Control [46]: 0
- % dilation (% Change in pupil size) [47]: 0%
- Pupil Size [47]: 3 mm
- Pupil Size -Control [47]: 0
- AUC0-168 (1%, 0.1 ml, mean of 2 subjects): 7436.5 (%)xhr
- duration of action (1%, 100 μL topical): much longer than in the case of tropicamide
- local mydriatic activity (1%, 100 μL topical): good local mydriatic activity that was similar to tropicamide
- recovery time (pupil within less than 1 mm of the control) (1%, subject 1): approximately 120 hours
- recovery time (pupil within less than 1 mm of the control) (1%, subject 2): 36 h
- uncomfortable sensations in human eyes (topical): did not cause any uncomfortable sensations
